# Results: paper PMC7723054
# Some of the results follow.
# T1: LIN28A (human?, UniProt Q9H9Z2 1-209)
# T1 sequence: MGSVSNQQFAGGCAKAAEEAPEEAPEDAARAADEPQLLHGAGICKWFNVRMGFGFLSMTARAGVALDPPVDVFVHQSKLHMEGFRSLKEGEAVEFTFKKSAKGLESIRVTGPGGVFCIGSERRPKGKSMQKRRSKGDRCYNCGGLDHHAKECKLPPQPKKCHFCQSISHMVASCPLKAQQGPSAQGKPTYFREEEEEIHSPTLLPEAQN
# T2: CIRBP (Homo sapiens, UniProt Q14011 1-172)
# T2 sequence: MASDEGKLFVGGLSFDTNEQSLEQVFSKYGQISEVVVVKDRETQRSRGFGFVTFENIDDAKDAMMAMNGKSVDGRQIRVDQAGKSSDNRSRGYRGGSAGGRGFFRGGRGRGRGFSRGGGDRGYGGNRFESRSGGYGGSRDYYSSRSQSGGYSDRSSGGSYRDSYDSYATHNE
# T3: DHX36 (Homo sapiens, UniProt Q9H2U1 1-1008)
# T3 sequence: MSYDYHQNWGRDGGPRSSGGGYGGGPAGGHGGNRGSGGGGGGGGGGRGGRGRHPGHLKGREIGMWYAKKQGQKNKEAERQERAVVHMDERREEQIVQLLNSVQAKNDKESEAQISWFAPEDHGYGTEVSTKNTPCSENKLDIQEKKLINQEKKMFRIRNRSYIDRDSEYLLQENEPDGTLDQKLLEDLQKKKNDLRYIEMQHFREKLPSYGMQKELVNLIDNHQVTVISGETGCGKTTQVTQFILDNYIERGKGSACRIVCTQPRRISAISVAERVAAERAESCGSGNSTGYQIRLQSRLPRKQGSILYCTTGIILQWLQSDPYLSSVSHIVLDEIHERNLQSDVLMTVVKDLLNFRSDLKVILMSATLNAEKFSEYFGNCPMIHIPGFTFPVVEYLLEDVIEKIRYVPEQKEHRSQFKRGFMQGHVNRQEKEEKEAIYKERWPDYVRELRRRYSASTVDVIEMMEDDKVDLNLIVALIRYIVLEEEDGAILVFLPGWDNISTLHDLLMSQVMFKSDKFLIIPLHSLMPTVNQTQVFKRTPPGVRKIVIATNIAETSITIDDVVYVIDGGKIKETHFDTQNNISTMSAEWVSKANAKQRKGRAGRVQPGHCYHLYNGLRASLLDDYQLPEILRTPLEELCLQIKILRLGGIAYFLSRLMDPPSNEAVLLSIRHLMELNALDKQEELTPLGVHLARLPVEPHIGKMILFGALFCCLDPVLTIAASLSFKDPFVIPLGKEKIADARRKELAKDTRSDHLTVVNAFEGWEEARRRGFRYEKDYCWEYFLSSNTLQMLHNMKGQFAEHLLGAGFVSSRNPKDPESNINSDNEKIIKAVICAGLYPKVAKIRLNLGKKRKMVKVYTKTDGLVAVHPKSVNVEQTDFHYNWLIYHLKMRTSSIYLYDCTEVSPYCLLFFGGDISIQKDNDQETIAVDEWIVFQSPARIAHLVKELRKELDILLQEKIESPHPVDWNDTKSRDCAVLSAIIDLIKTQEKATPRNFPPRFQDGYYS
# Experiments:
# Experiment in all cases: FOREST: bead pull-down of RNA structure library v1, barcode microarray; U1A/LIN28A: 20 mM HEPES pH 7.5, 80 mM KCl, 20 mM NaCl, 10% glycerol, 2 mM DTT, 0.1 ug/uL BSA, 4 C; BG4/CIRBP/DHX36: 10 mM Tris-HCl pH 7.5, 100 mM KCl (or LiCl),; high values mean tight binding
# U1A = U1A (Homo sapiens, UniProt P09012)
# LIN28A = target: T1, LIN28A
# CIRBP = target: T2, CIRBP
# DHX36 = target: T3, DHX36
binder,measurement,setting,value
PARIS_ID30 (structured_RNA) RNA: GGGAAGUCGGGCUAAAGCCAUCACAAAAGGUGUACGAAGUUUCAGCUAUUCUCUCUGUUGGAACUCAAAUACACAGAACUGGGUAGCUGAAGCUUCGUGCAC,binding signal,U1A,0.264 z-score
same,binding signal,LIN28A,-0.162 z-score
same,binding signal,CIRBP,-0.0498 z-score
same,binding signal,DHX36,-1.17 z-score
hsa-mir-448 (structured_RNA) RNA: GGGAAGGUCUCGACUGCAGUCCAACUACGGUGUACGAAGUUUCAGCGCUGCCAGGAAAUCCCUAUUUCAUAUAAGAGGGGGCUGGCUGGUUGCGCUGAAGCUUCGUGCAC,binding signal,U1A,0.262 z-score
same,binding signal,LIN28A,-0.846 z-score
same,binding signal,CIRBP,-1.18 z-score
same,binding signal,DHX36,0.0113 z-score
hsa-mir-8075 (structured_RNA) RNA: GGGAAUAAGCCGUUCGCAUCUCCAAAGCGGUGUACGAAGUUUCAGCGCUUAUACGUGCCCUUGCUGCUGAAGCUUCGUGCAC,binding signal,U1A,0.259 z-score
same,binding signal,LIN28A,0.462 z-score
same,binding signal,CIRBP,0.528 z-score
same,binding signal,DHX36,0.175 z-score
hsa-mir-4536-1 (structured_RNA) RNA: GGGAAUUGCUUCUGGAACGGCUGUGUGAGGUGUACGAAGUUUCAGCACGAUAUAUAUACUGCCCUGCUUUUAUACAUACAUACAUACAUACCUAUAUCGUGCUGAAGCUUCGUGCAC,binding signal,U1A,3.67 z-score
same,binding signal,LIN28A,1.68 z-score
same,binding signal,CIRBP,1.36 z-score
same,binding signal,DHX36,1.14 z-score
hsa-mir-214 (structured_RNA) RNA: GGGAGGAUCACGCUUAUAAUCCGAGUACGGUGUACGAAGUUUCAGCCUGUGCAGAACAUCCGCUCACCUGUACAGGCUGAAGCUUCGUGCAC,binding signal,U1A,1.88 z-score
same,binding signal,LIN28A,0.537 z-score
same,binding signal,CIRBP,-0.201 z-score
same,binding signal,DHX36,0.916 z-score
hsa-mir-1282 (structured_RNA) RNA: GGGACCGAAAUCUAGAACUGCCCCUGGAGGUGUACGAAGUUUCAGCGCUUCUGCUGCAUGAUCUCCGAGUCCCUGGGGGUAGAGAUGAUGGGGCACUGGGAGGUGCUGAAGCUUCGUGCAC,binding signal,U1A,0.258 z-score
same,binding signal,LIN28A,-0.344 z-score
same,binding signal,CIRBP,-0.466 z-score
same,binding signal,DHX36,-0.334 z-score
hsa-mir-33a (structured_RNA) RNA: GGGAGUAGAACGUGAGCGCGUAUCAAUAGGUGUACGAAGUUUCAGCAUUGCAUGUUCUGGUGGUACCCAUGCAAUGCUGAAGCUUCGUGCAC,binding signal,U1A,0.258 z-score
same,binding signal,LIN28A,0.0186 z-score
same,binding signal,CIRBP,-0.854 z-score
same,binding signal,DHX36,-0.679 z-score
hsa-mir-4501 (structured_RNA) RNA: GGGAAGUCGCGAAGCACACUGACCAAGAGGUGUACGAAGUUUCAGCAUCACUGAAAUAUGUCUGAGCUUCUGUUGCUGAAGCUUCGUGCAC,binding signal,U1A,0.256 z-score
same,binding signal,LIN28A,0.97 z-score
same,binding signal,CIRBP,-0.368 z-score
same,binding signal,DHX36,-0.123 z-score
hsa-mir-548ag-2 (structured_RNA) RNA: GGGACACCACGGGUUGACACUCUCGAUCGGUGUACGAAGUUUCAGCCUGCCAUUGAAAGUAAAGGCAAGCUGAAGCUUCGUGCAC,binding signal,U1A,0.255 z-score
same,binding signal,LIN28A,0.664 z-score
same,binding signal,CIRBP,-1.21 z-score
same,binding signal,DHX36,-0.989 z-score
hsa-mir-4704 (structured_RNA) RNA: GGGACCUGCCGUAAGGUAUAAGCCGACAGGUGUACGAAGUUUCAGCGUGAUUGUCUUCCUCACUCAAUCAGGCUGAAGCUUCGUGCAC,binding signal,U1A,0.253 z-score
same,binding signal,LIN28A,-0.156 z-score
same,binding signal,CIRBP,-0.177 z-score
same,binding signal,DHX36,0.409 z-score
hsa-mir-6740 (structured_RNA) RNA: GGGAAUAAAACGGGCGAGCGCACUCAACGGUGUACGAAGUUUCAGCGAGAAACUUGAGGUCUCUGGGAGUUGCUUAAACCAGUUGACCGUAACCUGGCCAGAGAAUUCUGAUAGUGUCGCUGAAGCUUCGUGCAC,binding signal,U1A,0.252 z-score
same,binding signal,LIN28A,0.905 z-score
same,binding signal,CIRBP,-0.0881 z-score
same,binding signal,DHX36,1.35 z-score
hsa-mir-3688-2 (structured_RNA) RNA: GGGAACGCGAGCGACGCCAUUUAGUAACGGUGUACGAAGUUUCAGCCAUAUGUGUAACAGACAUACAUACAUACAUAUGGCUGAAGCUUCGUGCAC,binding signal,U1A,0.252 z-score
same,binding signal,LIN28A,2.34 z-score
same,binding signal,CIRBP,2.68 z-score
same,binding signal,DHX36,-0.161 z-score
hsa-mir-7973-1 (structured_RNA) RNA: GGGAAGACUGUCGGCACCUUAGUCUUCGGGUGUACGAAGUUUCAGCUUACCCAACGUCUCUGAGUCUCGGUUUUGAGAGGGUGAGUAAGCUGAAGCUUCGUGCAC,binding signal,U1A,0.241 z-score
same,binding signal,LIN28A,-1.3 z-score
same,binding signal,CIRBP,-1.31 z-score
same,binding signal,DHX36,-0.197 z-score
hsa-mir-7704 (structured_RNA) RNA: GGGAAAAGCAAACGCCUGGUGUAUCUGUGGUGUACGAAGUUUCAGCCGUGCUCAGCUUGGCACCCAAGUUCUGCGCUGAAGCUUCGUGCAC,binding signal,U1A,0.24 z-score
same,binding signal,LIN28A,0.36 z-score
same,binding signal,CIRBP,-0.0213 z-score
same,binding signal,DHX36,-0.311 z-score
hsa-mir-7161 (structured_RNA) RNA: GGGAACUGGUGCCGAGACCGACAUUACUGGUGUACGAAGUUUCAGCCUGGUGUUCUCACGCAAAGUGGCCAGGGUGUGGGAGACUAGAGCUGAAGCUUCGUGCAC,binding signal,U1A,0.236 z-score
same,binding signal,LIN28A,0.61 z-score
same,binding signal,CIRBP,-0.507 z-score
same,binding signal,DHX36,-0.628 z-score
hsa-mir-7110 (structured_RNA) RNA: GGGAACCCGGAAUUGACGUAGAAACGAAGGUGUACGAAGUUUCAGCGAGAGAGUGCACAGCCAGCUCAGGGAUUAAAGCUCUUUCUCUCUCUCUCGCUGAAGCUUCGUGCAC,binding signal,U1A,1.87 z-score
same,binding signal,LIN28A,1.51 z-score
same,binding signal,CIRBP,1.81 z-score
same,binding signal,DHX36,1.47 z-score
hsa-mir-6758 (structured_RNA) RNA: GGGAAUGACGUGAGUCGCCAUAAUCUACGGUGUACGAAGUUUCAGCAUGUGAUGUGAGCAGAUGGUUCUCACUGCUGAAGCUUCGUGCAC,binding signal,U1A,0.236 z-score
same,binding signal,LIN28A,1.03 z-score
same,binding signal,CIRBP,1.56 z-score
same,binding signal,DHX36,0.805 z-score
hsa-mir-3165 (structured_RNA) RNA: GGGCCCACGCCAAAAUUGACGCCUAACCGGUGUACGAAGUUUCAGCCUCAACUCUUGGUCCUCUGAGGCUGAAGCUUCGUGCAC,binding signal,U1A,0.235 z-score
same,binding signal,LIN28A,-1.42 z-score
same,binding signal,CIRBP,-0.534 z-score
same,binding signal,DHX36,-0.247 z-score
hsa-mir-539 (structured_RNA) RNA: GGGAAACGGUUAUUAGCCCUGCUCUCCGGGUGUACGAAGUUUCAGCUGUUCGCUUUAUUUAUGAUGAAUCAGCUGAAGCUUCGUGCAC,binding signal,U1A,0.234 z-score
same,binding signal,LIN28A,-0.582 z-score
same,binding signal,CIRBP,-0.174 z-score
same,binding signal,DHX36,-0.504 z-score
hsa-mir-1297 (structured_RNA) RNA: GGGAAUUACCGAGCGAGGUACGAAAUGAGGUGUACGAAGUUUCAGCAGAAUUACUUAUCUGAGCCAAAGUAAUUCAGCUGAAGCUUCGUGCAC,binding signal,U1A,0.232 z-score
same,binding signal,LIN28A,0.0606 z-score
same,binding signal,CIRBP,-0.675 z-score
same,binding signal,DHX36,1.59 z-score
hsa-mir-3187 (structured_RNA) RNA: GGGAAAACACAGUAGAGGCCACCCACGUGGUGUACGAAGUUUCAGCUGAAGGUCACCAUGUUCUCCUUGGCUGAAGCUUCGUGCAC,binding signal,U1A,0.231 z-score
same,binding signal,LIN28A,-0.797 z-score
same,binding signal,CIRBP,-0.448 z-score
same,binding signal,DHX36,-0.552 z-score
hsa-mir-6718 (structured_RNA) RNA: GGGACAGUACGUGUAAGCCCGGUUCAGGGGUGUACGAAGUUUCAGCAUGAUAUAUUGUGAGAGCCAUGUCAUGCUGAAGCUUCGUGCAC,binding signal,U1A,0.23 z-score
same,binding signal,LIN28A,1.72 z-score
same,binding signal,CIRBP,0.505 z-score
same,binding signal,DHX36,1.03 z-score
